Assay results from PubChem BioAssay AID1481 (The Scripps Research Institute Molecular Screening Center, 2009).
The entries are a selection whose mix differs from that of the whole data set. The source made the active and inactive calls. No stated cut-off is given here; in the data, active means inhibition above about 15%; inactive means the rest.

Chains of the proteins cited; added tags and fusions are not shown.
UniProt P55072, whole entry: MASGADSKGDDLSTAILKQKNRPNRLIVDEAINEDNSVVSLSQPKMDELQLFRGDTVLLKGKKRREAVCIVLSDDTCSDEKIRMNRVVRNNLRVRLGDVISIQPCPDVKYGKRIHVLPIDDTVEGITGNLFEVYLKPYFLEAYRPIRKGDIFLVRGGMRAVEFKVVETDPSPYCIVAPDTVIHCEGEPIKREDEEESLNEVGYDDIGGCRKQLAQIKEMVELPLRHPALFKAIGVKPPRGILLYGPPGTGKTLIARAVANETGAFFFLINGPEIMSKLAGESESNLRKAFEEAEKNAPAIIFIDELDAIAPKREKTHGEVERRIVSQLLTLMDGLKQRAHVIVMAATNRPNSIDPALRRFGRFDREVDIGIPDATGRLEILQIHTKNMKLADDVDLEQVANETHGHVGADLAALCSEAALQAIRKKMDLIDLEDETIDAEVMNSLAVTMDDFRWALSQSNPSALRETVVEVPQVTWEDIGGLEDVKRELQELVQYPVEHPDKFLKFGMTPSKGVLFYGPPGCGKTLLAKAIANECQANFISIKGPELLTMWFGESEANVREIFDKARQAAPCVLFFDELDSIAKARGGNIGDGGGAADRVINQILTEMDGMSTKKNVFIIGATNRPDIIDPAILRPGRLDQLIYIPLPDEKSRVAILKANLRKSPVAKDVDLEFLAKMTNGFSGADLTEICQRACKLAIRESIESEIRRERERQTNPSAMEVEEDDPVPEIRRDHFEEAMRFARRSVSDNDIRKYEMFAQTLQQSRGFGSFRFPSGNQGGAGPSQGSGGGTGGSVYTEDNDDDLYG

The molecules below were run against Transitional endoplasmic reticulum ATPase (Homo sapiens) (UniProt P55072) (assay: inhibitors of human p97 ATPase, primary screen, biochemical (AID 1481;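 further: 0% = DMSO vehicle and 100% = wells lacking enzyme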)). Conditions: recombinant p97 ATPase, Kinase-Glo ATP luminescence, 3 h; at 8 µM; active compounds read high.

Compound	inhibition
COc1ccc(CN(CCCl)CCCl)cc1Cl	inactive: 13.2%
CN(C)c1cccc(C(=O)NCC2(N3CCCCC3)CCCCC2)c1	inactive: 7.07%
CC(C)c1ccc(NC2CCN(C(=O)OC(C)(C)C)CC2)cc1	inactive: -1.69%
CN1CCC(Nc2cccc(F)c2)CC1	inactive: 5.2%
O=C(NCC1(N2CCCCC2)CCCCC1)c1cccc([N+](=O)[O-])c1	inactive: 2.73%
N#CC1(Nc2ccccc2)CCN(CCc2ccccc2)CC1	inactive: 1.5%
CN1CCN(CCOC(=O)C(O)(c2ccccc2)c2ccccc2)CC1	inactive: 5.06%
COc1ccc(NC2CCN(C(=O)OC(C)(C)C)CC2)cc1	inactive: -0.51%
O=C(NCC1(N2CCOCC2)CCCCC1)c1cc(=O)[nH]c2ccccc12	inactive: 1.74%
COc1ccc(NC2CCN(CCc3ccccc3)CC2)c(OC)c1	inactive: -0.33%
CCOc1ccc(C)cc1CN(CCCl)CCCl	inactive: 7.14%
Cc1ccc(OCC(C)C)c(CN(CCCl)CCCl)c1	inactive: -7.17%
COc1ccc(C(=O)NCC2(N3CCCCC3)CCCCC2)c(OC)c1OC	inactive: 2.62%
CCOC(=O)N1CCC(Nc2ccc(OC)cc2)CC1	inactive: 4.03%
N#CC1(Nc2ccccc2)CCN(Cc2ccccc2)CC1	inactive: 4.07%
O=C(OC1CN2CCC1CC2)C1c2ccccc2Oc2ccccc21 (centres undefined)	inactive: -0.9%
O=C(NCC1(N2CCOCC2)CCCCC1)c1cc2ccccc2o1	inactive: -0.47%
CC(C)(C)OC(=O)N1CCC(Nc2ccccc2)CC1	inactive: -1.67%
CCOc1ncccc1C(=O)NCC1(N2CCOCC2)CCCCC1	inactive: -4.47%
CCCOc1ccc(C)cc1CN(CCCl)CCCl	inactive: 11.1%
CCC(CO)(C(=O)OC1CN2CCC1CC2)c1ccccc1 (centres undefined)	inactive: 1.71%
COc1cc(OC)cc(C(=O)NCC2(N3CCOCC3)CCCCC2)c1	inactive: -3.33%
CN(C)c1ccc(C(=O)NCC2(N3CCCCC3)CCCCC2)cc1	inactive: 3.61%
CCN1CCC(Nc2cccc(F)c2)CC1	inactive: 0%
N#Cc1ccc(C(=O)NCC2(N3CCCCC3)CCCCC2)cc1	inactive: 1.09%
c1ccc(CN2CCC(Nc3ccccc3)CC2)cc1	inactive: 0.81%
COc1ccc(C(=O)NCC2(N3CCOCC3)CCCCC2)cc1OC	inactive: 3.29%
O=C(OC1CN2CCC1CC2)C1c2ccccc2C=Cc2ccccc21 (centres undefined)	inactive: 3.01%
N/C(=N\O)c1c(N)no[n+]1[O-]	inactive: 3.01%
